Here are results for one compound from patent publication US3932650A, “Trans-octahydropyridoindolobenzazepines as central nervous system depressants” (E. I. Du Pont de Nemours & Company, priority 1973, dated 1976).

The assay relates to phenyl-p-benzoquinone-induced writhing. Description: Phenylquinone Writhing (P.Q.W.). Conditions: analgesic; more potent than codeine phosphate. It is filed as in vivo, mouse.

In the case of `CN1CC[C@@H]2[C@@H](C1)c1cccc3c1N2c1ccccc1CC3` (relative stereo), the “potency relative to codeine phosphate” value is “about 10 X”.
